# Apparent affinities of Ab-14 variants for a coronavirus HR2 peptide

The measurements come from Li et al. 2023 (doi:10.1038/s41467-023-39022-2) through the FLAb antibody collection.

Target peptide (SARS-CoV-2 spike, HR2 region): PDVDLGDISGINAS

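This is the validation round: designs drawn from the data on random variants, tested in the same kind of assay. Several design methods are mixed in this list. Affinity was read by AlphaSeq, a pooled yeast mating assay with surface-displayed partners. Binding brings cells together so that they mate, and sequencing counts the barcode pairs among the diploids. Read counts were normalised to the haploid input and turned into Kd by a linear fit to BCL2-family pairs of known affinity, for each replicate. There are six technical replicates.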

Each scFv is VH, three GGGGS repeats, VL, as in the parent Ab-14, and differs from it in the CDRs of the heavy chain only.
VH: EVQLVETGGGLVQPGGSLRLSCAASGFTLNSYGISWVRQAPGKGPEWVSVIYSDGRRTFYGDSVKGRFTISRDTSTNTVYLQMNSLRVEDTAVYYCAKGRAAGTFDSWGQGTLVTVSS
VL: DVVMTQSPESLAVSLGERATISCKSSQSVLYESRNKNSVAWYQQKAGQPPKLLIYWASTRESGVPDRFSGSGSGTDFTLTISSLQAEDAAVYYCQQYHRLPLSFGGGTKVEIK

The parent's heavy chain CDRs are GFTLNSYGIS, VIYSDGRRTFYGDSVK, GRAAGTFDS; each variant's own CDRs replace them letter for letter. Scale: log10 of Kd in nM, estimated from mating counts; low values are strong binders. A pair that was not seen in that replicate is written "n.d."; this usually means weak binding, but a binder can also be missed. The parent sequence was in this pool as ten entries: three were never detected, three once, and four in most replicates, with averages from 0.34 to 2.37. Background: pairings of all heavy chain designs with three empty control strains gave a value in 1% of cases (median 2.08, 5th percentile 0.84). Values in that range, when seen in few replicates, are hard to tell from nonspecific mating. A sequence measured in both rounds can read differently, since the two assays cover different ranges. The authors averaged sequences with at least three values out of six and counted those with two or fewer as poor binders.

CDR-H1,CDR-H2,CDR-H3,"log10 Kd, replicates"
GFTLNSYGIS,VIYSDGRRTFYGDSVK,DRAAGTFDQ,0.00 0.07 -0.08 0.25 2.24 0.33
GFDLNEYGIS,VIYADGRRTSYIDSVK,GETAGTFDV,-0.13 0.08 0.05 -0.14 -0.33 0.19
GFTLNSYGGS,VIYADGRRTFYHDSVK,GRYAGTFDD,n.d. n.d. n.d. n.d. n.d. n.d.
GFNLDEYGIS,VIYADGRRTFYADSVK,GTHAGTFDT,-0.35 -0.77 -0.90 -1.38 -0.81 -0.50
GFQLNSYGIS,VIYSDGRRTFYGDSVK,GRAAATFDS,n.d. n.d. n.d. n.d. n.d. 2.11
GFSLNSYGIS,VIYSDGRRTFYGDNVK,GREAGTFDS,0.48 0.18 0.23 -0.07 0.09 0.32
GFDLNEYGIS,VIYADGMRTAYADSVK,GNVAGTFDS,-0.25 -0.59 -0.72 -0.63 -0.92 -0.71
GFDLNEYGIS,VIYADGVRTAYTDDVK,GENAGTFDV,-0.36 -0.40 -0.67 -0.50 -0.72 -0.28
GFSLNEYGIS,VIYSDGRRTWYGDQVK,GRAAGTFDS,1.42 1.37 1.40 0.70 1.64 1.84
GFDLDEYGIS,VIYADGKRTAYADDVK,GQNAGTFDV,n.d. n.d. 0.57 -0.59 -1.27 -0.23
LFTLNSYGIS,VIYSDGRRTFYSPSVK,GRAAGTFDS,1.35 1.42 2.15 1.19 1.66 1.13
GFDLDEYGIS,VIYADGQRTFYADSVK,GEVAGTFDL,0.01 0.00 -0.27 -0.67 0.03 -0.02
GFTLNSYGIS,VIYSDGRRTMYGDDVK,GKAAGTFDS,1.67 2.80 n.d. 2.52 2.54 1.53
GDDLNSYGIS,VIYSDGRRTFYSDSWK,NRAAGTVSS,n.d. n.d. n.d. n.d. n.d. n.d.
GFTLQSYGIS,VIYSDGRRTFYSDSVK,GGAAGTFDS,n.d. n.d. n.d. 3.53 n.d. n.d.
GYSLNEYGIS,VIYSDGRRTFYGDSVK,GRAAGTFDS,n.d. n.d. n.d. n.d. n.d. n.d.
GFDLDEYGIS,VIYADGMRTAYTDNVK,GENAGTFDV,-0.30 -0.21 -0.53 -0.65 -0.44 0.10
GFDLDEYGIS,VIYADGKRTAYVDSVK,GTNAGTFDV,1.25 0.49 1.70 0.54 2.21 1.04
GFDLNEYGIS,VIYADGMRTVYADSVK,GENAGTFDL,0.21 -0.21 -0.20 -0.34 -0.12 0.36
RFTLESYGIS,VIYADGRRTFYGDSVK,GRAAGTFDS,0.60 1.53 0.96 1.12 0.87 0.97
GFDLDEYGIS,VIYADGRRTFYADSVK,GGLAGTFDV,0.17 0.09 -0.08 -0.03 -0.22 0.10
GFSLNSYGIS,VIYSDGRRTFYADEVK,GRQAGTFDS,0.17 0.36 0.09 0.29 -0.23 0.23
GFDLNEYGIS,VIYSDGRRTFYGDAVK,GQAAGTFDS,0.17 0.07 0.05 0.01 0.13 0.19
GFDLNEYGIS,VIYADGMRTSYADDVK,GNVAGTFDI,-0.25 -0.13 -0.29 -0.28 -0.60 -0.23
GFDLNTYGIS,VIYSDGRRTFYGDSVK,GEAAGTFDR,0.04 -0.03 0.88 -0.39 -0.36 0.38
GFDLNEYGIS,VIYADGMRTAYIDSVK,GNTAGTFDI,-0.31 -0.35 -0.57 -0.69 -0.64 -0.35
GFQLDEYGIS,VIYADGRRTFYQDSVK,GNVAGTFDV,0.07 -0.02 -1.24 -1.94 -1.29 -0.69
GFDLDEYGIS,VIYADGMRKAYSDSVK,GNVAGTFDV,-0.54 -0.48 -0.64 -0.65 -0.70 -0.03
GFELNSYGIS,VIYSDGRRTFYGDSVK,GQLAGTFDS,0.93 0.82 n.d. n.d. 0.85 n.d.
GFTLNSYGIS,VIYSDGRRTFYGDSVK,GRAAGTFFM,n.d. n.d. n.d. n.d. n.d. n.d.
GFDLNEYGIS,VIYADGQRTFYADSVK,GETAGTFDQ,-0.26 -0.46 -0.47 -0.65 -0.35 -0.48
GFTLNEYGIS,VIYSDGRRTFYGDAVK,GRAAGTFDQ,0.19 -0.42 -0.02 -0.95 0.16 -0.20
GFTLNSYGIS,VIYADGRRTFYGDSVK,GQAAGTFQS,0.59 0.36 n.d. 0.49 2.90 1.23
GFDLNEYGIS,VIYADGRRTAYTDSVK,GTAAGTFDL,-0.28 -0.63 -0.61 -0.93 -0.66 -0.22
GFDLESYGIS,VIYADGRRTFYADNVK,GENAGTFDI,-0.16 -0.44 -0.48 -0.77 -0.66 -0.06
GADINEYGIS,VIYADGLSTYYANSFK,GHNAGTFNM,n.d. n.d. n.d. n.d. n.d. n.d.
GFDLNEYGIS,VIYADGMRTAYSDDVK,GNQAGTFDV,-0.44 -0.99 -0.39 -0.68 -0.77 -0.87

The last 4 entries again:

CDR-H1,CDR-H2,CDR-H3,"log10 Kd, replicates"
GFDLNEYGIS,VIYADGRRTAYTDSVK,GTAAGTFDL,-0.28 -0.63 -0.61 -0.93 -0.66 -0.22
GFDLESYGIS,VIYADGRRTFYADNVK,GENAGTFDI,-0.16 -0.44 -0.48 -0.77 -0.66 -0.06
GADINEYGIS,VIYADGLSTYYANSFK,GHNAGTFNM,n.d. n.d. n.d. n.d. n.d. n.d.
GFDLNEYGIS,VIYADGMRTAYSDDVK,GNQAGTFDV,-0.44 -0.99 -0.39 -0.68 -0.77 -0.87